Measured values taken from ChEMBL document CHEMBL1129385, “Aspartic acid conjugates of 2-(3,4-dichlorophenyl)-N-methyl-N-[(1S)-1(3-aminophenyl)-2-(1-pyrrolidi nyl) ethyl]acetamide: kappa opioid receptor agonists with limited access to the central nervous system” (J Med Chem, 1996).

Columns and labels:
[1] = system: Mus musculus; test: Compound was evaluated for Antinociceptive potencies in mice for in vivo activity Mouse abdominal stretch assay by iv administration; settings: Abdomen
[2] = species: Mus musculus; test: Compound was tested for its agoinst potencies on the electrically stimulated mouse vas deferens
[3] = system: Mus musculus; test: Compound was evaluated for Antinociceptive potencies in mice for in vivo activity in Mouse abdominal stretch assay by icv administration; settings: Abdomen
[4] = system: Mus musculus; test: Compound was evaluated for Antinociceptive potencies in mice for in vivo activity in mouse tail-flick by iv administration

Row | Compound | ED50 [1] [µmol/kg] | IC50 [2] [nM] | ED50 [3] [µmol/kg] | ED50 [4] [µmol/kg]
1 | CN(C(=O)Cc1ccc(Cl)c(Cl)c1)[C@H](CN1CCCC1)c1ccccc1 | 0.0165 | 2.5 | 0.0118 | 
2 | CN(C(=O)Cc1ccc(Cl)c(Cl)c1)[C@H](CN1CCCC1)c1cccc(NC(=O)[C@@H](N)CC(=O)O)c1 | 0.105 |  |  | 
3 | CN(C(=O)Cc1ccc(Cl)c(Cl)c1)[C@H](CN1CCCC1)c1cccc(NC(=O)C[C@H](N)C(=O)O)c1 | 0.628 |  |  | 
4 | CN(C(=O)Cc1ccc(Cl)c(Cl)c1)[C@H](CN1CCCC1)c1cccc(NC(=O)[C@H](N)CC(=O)O)c1 | 2.02 |  |  | 2.02
